# Molecular target: T1, Nuclear factor NF-kappa-B p105 subunit (Homo sapiens, UniProt P19838)
# T1 sequence (P19838 whole entry): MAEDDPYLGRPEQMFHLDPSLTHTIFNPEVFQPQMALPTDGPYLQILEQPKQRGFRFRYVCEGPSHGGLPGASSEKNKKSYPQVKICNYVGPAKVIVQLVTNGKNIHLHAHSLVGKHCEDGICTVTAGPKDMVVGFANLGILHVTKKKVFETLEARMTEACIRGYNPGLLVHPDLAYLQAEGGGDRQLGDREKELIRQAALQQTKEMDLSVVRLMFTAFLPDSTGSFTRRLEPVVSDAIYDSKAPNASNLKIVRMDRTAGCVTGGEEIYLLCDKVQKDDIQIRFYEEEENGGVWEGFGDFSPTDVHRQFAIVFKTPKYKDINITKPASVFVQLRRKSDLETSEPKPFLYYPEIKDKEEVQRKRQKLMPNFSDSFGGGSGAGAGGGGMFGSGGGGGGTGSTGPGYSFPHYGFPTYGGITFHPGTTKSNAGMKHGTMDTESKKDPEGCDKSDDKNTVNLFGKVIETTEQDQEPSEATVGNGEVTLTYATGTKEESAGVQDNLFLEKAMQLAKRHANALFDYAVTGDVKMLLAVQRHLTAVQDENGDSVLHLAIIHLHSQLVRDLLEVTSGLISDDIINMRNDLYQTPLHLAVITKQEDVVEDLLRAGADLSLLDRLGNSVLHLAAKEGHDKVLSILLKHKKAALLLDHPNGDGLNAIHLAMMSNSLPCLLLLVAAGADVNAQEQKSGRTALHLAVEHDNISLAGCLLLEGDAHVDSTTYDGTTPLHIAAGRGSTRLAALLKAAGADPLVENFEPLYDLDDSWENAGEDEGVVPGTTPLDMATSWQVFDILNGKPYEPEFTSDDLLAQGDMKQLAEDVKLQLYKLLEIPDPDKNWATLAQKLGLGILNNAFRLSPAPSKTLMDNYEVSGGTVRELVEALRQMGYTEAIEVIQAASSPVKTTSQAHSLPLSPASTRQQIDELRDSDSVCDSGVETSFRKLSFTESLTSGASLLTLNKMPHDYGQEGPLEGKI
# Assay: Luciferin is added to the cell lysates and the luciferase enzyme catalyzes a cleavage of luciferin leading to the emission of light.
compound,measurement,value
COc1cc(/C=C/C(=O)CC(=O)/C=C/c2ccc(O)c(OC)c2)ccc1O [CURCUMIN],IC50,8.2 µM
